Source: article PMC8343220, “The selectivity of α‐adrenoceptor agonists for the human α1A, α1B, and α1D‐adrenoceptors” (Pharmacology Research & Perspectives, 2021)

Sequences of proteins named here, by UniProt entry; tags and fusion partners are left off. A change or cut given only in a name is not applied to a line headed by its entry.
UniProt P35348: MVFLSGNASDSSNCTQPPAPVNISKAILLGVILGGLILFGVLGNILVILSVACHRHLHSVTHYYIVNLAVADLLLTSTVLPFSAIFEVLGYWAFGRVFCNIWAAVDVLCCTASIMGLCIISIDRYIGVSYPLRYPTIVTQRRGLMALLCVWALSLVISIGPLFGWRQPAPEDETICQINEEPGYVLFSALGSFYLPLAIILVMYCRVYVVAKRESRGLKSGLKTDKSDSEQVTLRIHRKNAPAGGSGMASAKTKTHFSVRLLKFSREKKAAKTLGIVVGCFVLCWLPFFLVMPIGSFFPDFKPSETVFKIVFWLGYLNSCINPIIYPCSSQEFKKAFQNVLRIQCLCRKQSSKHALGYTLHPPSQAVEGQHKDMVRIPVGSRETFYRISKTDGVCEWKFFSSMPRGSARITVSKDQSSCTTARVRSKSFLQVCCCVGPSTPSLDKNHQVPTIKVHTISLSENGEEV
UniProt P35368, whole entry, looked up: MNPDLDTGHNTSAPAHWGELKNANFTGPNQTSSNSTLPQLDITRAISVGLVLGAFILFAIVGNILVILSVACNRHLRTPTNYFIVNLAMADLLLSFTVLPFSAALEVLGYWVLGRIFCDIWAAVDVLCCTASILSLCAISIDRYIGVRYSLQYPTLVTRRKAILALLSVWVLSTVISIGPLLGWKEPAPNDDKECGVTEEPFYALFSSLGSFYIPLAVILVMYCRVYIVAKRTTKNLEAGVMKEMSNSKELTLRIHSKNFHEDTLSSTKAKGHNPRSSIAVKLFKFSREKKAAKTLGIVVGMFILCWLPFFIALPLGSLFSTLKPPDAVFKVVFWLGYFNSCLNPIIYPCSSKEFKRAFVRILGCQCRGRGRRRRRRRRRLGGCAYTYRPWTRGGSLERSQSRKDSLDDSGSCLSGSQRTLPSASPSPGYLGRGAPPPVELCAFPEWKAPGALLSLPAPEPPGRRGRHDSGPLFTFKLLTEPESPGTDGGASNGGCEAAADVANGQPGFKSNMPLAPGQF
UniProt P25100, whole entry, looked up: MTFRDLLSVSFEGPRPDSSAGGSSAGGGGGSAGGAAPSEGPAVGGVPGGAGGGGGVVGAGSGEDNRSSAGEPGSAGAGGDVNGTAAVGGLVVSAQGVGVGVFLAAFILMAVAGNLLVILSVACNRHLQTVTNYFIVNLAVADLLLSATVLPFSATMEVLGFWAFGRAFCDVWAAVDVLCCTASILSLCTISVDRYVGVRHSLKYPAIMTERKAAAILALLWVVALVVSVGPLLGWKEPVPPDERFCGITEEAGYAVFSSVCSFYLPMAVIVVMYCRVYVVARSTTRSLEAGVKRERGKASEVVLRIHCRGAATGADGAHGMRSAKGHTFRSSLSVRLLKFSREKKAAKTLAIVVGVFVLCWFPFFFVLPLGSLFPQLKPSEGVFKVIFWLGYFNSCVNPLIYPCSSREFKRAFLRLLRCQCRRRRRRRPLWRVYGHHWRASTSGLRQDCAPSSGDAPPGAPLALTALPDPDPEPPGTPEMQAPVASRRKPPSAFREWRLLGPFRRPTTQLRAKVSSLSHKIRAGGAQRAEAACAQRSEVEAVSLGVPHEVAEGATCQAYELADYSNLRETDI

How the values were obtained:
human α1A‐adrenoceptor [1] = molecular target: T1, human α1A‐adrenoceptor (Homo sapiens, UniProt P35348); assay: ^3H‐prazosin whole‐cell radioligand binding, CHO‐α1A cells
human α1B‐adrenoceptor [2] = molecular target: T2, human α1B‐adrenoceptor (Homo sapiens, UniProt P35368); assay: ^3H‐prazosin whole‐cell radioligand binding, CHO‐α1B cells
[3] = molecular target: T3, human α1D‐adrenoceptor (full length) (Homo sapiens, UniProt P25100); assay: ^3H‐prazosin whole‐cell radioligand binding, CHO‐α1D cells
human α1A‐adrenoceptor [4] = molecular target: T1, human α1A‐adrenoceptor; assay: Intracellular free calcium mobilization, CHO‐α1A cells; assay type: cell-based
[5] = molecular target: T3, human α1D‐adrenoceptor (full length); assay: Intracellular free calcium mobilization, CHO‐α1D cells; assay type: cell-based
human α1A‐adrenoceptor [6] = molecular target: T1, human α1A‐adrenoceptor; assay: ERK1/2‐phosphorylation (Surefire Alphascreen), CHO‐α1A cells; assay type: cell-based; details: % of 10 µM PDBu, ^a bi‐phasic: initial stimulatory part
human α1B‐adrenoceptor [7] = molecular target: T2, human α1B‐adrenoceptor; assay: ERK1/2‐phosphorylation (Surefire Alphascreen), CHO‐α1B cells; assay type: cell-based; details: for bi‐phasic responses the initial stimulatory part
[8] = molecular target: T3, human α1D‐adrenoceptor (full length); assay: ERK1/2‐phosphorylation (Surefire Alphascreen), CHO‐α1D cells; assay type: cell-based
[9] = maximal response as % of 10 µM ionomycin

CN(CCCl)Cc1cc(Cl)c(NC2=NCCN2)c(Cl)c1
Log KD α1A, ^3H‐prazosin whole cell binding (human α1A‐adrenoceptor [1]; CHO‐α1A cells, given as log KD (negative), mean ± SEM): −5.43 ± 0.05
Affinity selectivity ratio α1A vs α1B (human α1A‐adrenoceptor [1]; higher affinity for α1A than α1B): 1.2 fold
Log KD α1B, ^3H‐prazosin whole cell binding (human α1B‐adrenoceptor [2]; given as log KD (negative), mean ± SEM): −5.35 ± 0.07
Log KD, ^3H‐prazosin binding (human α1B‐adrenoceptor [2]; whole‐cell binding (from Table 1), given as log KD (negative numbers)): −5.35
3H‐prazosin binding Log KD ([3]; CHO‐α1D cells, whole‐cell binding (from Table 1), log values given negative): −5.50
Log KD α1D, ^3H‐prazosin whole cell binding ([3]; CHO‐α1D cells, given as log KD (negative), mean ± SEM, 'early plateau' = specific binding not fully inhibited): −5.50 ± 0.06
Affinity selectivity ratio α1A vs α1D ([3]; higher affinity for α1D than α1A): 1.2 fold
Affinity selectivity ratio α1B vs α1D ([3]; higher affinity for α1D than α1B): 1.4 fold
Log efficacy ratio KD /EC50 (human α1A‐adrenoceptor [4]; binding KD and calcium EC50): 0.14
Intracellular calcium release Log EC50 (human α1A‐adrenoceptor [4]; given as log EC50 (negative)): −5.57 ± 0.09
Intracellular calcium release % ionomycin (human α1A‐adrenoceptor [4]; [9]): 38.4 ± 2.8%
Intracellular calcium release Log EC50 ([5]; log values given negative): No response
Intracellular calcium release % ionomycin [5, 9]: No response
ERK1/2‐phosphorylation % PDBu (human α1A‐adrenoceptor [6]): 66.5 ± 6.4%
ERK1/2‐phosphorylation Log EC50 (human α1B‐adrenoceptor [7]): No response
ERK1/2‐phosphorylation % PDBu (human α1B‐adrenoceptor [7]; maximal response as % PDBu response): No response
ERK1/2‐phosphorylation Log EC50 ([8]; log values given negative): No response
ERK1/2‐phosphorylation % PDBu ([8]; maximal response as % of PDBu): No response
